## Binding of CDR-mutated scFvs to a peptide of the spike HR2 region

Reference: Engelhart et al. 2022, doi:10.1038/s41597-022-01779-4. File: FLAb, binding data.

Binding partner: SARS-CoV-2 spike HR2 peptide, sequence PDVDLGDISGINAS.

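The parent was found by panning a naive human phage display library on the peptide. AAYL52 was designed without a model: most single CDR substitutions and a random sample of double and triple ones. The assay is AlphaSeq: two haploid yeast populations carry antibody and antigen on their surface. Binding brings cells together so that they mate, and sequencing counts the barcode pairs among the diploids. The ratio of observed to expected reads was calibrated, replicate by replicate, on BCL2-family standards whose Kd was known from biolayer interferometry. There are three technical replicates.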

Each scFv is VH, the linker GGGGSGGGGSGGGGS, VL, as in the parent Ab-95, and differs from it in the CDRs of the light chain only.
VH: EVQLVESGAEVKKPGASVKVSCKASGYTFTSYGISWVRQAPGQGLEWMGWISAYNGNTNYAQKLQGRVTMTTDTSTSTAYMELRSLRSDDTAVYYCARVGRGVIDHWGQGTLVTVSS
VL: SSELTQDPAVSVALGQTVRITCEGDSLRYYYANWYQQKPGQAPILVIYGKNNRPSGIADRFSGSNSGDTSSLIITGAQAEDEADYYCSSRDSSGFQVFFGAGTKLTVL

Positions count from residue 1 of the parent VL; R28I puts I in place of R. Scale: log10 of Kd in nM, estimated from mating counts; low values are strong binders. The mean shown is taken over the replicates in which the pair was detected. "not detected" means that the variant was in the library but no mating with the target was seen in any replicate; the authors take this as a sign of poor binding, and no number exists. As a blank, each scFv also met three strains without target: over library AAYL52, 28% of these pairings were detected, typically at 3.91 and seldom below 2.90.

| changes | mean log10 Kd (nM) | detected |
|---|---|---|
| R28I/G49M/N51Q | 4.21 | 2/3 |
| R28Y/Y31H/R53P | 3.75 | 2/3 |
| Y29G/D91Q/Q96W | 1.58 | 3/3 |
| Y30N/D91M/S93V | 5.29 | 1/3 |
| Y29N/N51I/P54D | 3.89 | 3/3 |
| K50T/S55P/R90C | 4.57 | 1/3 |
| L27K/N33V/P54K | 4.10 | 1/3 |
| Y30D/F95Y/V97D | not detected | 0/3 |
| Y30A/P54N/S92W | 1.52 | 3/3 |
| R28Q/Y30T/N52W | 1.61 | 3/3 |
| A32L/S89N/Q96D | not detected | 0/3 |
| L27E/R28W/A32T | 3.73 | 3/3 |
| S55H/S89C/Q96V | 3.02 | 3/3 |
| D25H/R53H/F95T | 2.48 | 3/3 |
| N33T/N51S/Q96Y | 3.63 | 1/3 |
| S88E/R90M/Q96Y | not detected | 0/3 |
| D25P/L27E/S88F | 4.02 | 2/3 |
| Y31S/S55P/F95H | 3.23 | 2/3 |
| S26Y/A32D/N52H | 4.19 | 2/3 |
| A32F/R90T/V97I | 4.57 | 2/3 |
| Y31D/D91T/F95N | 1.18 | 3/3 |
| L27S/R53I/F95E | 3.67 | 3/3 |
| E23C/G24K/S88N | 2.27 | 1/3 |
| Y29M/P54V/G94S | 3.43 | 2/3 |
| A32K/K50R/V97W | not detected | 0/3 |
| N33P/P54S/R90K | 4.38 | 2/3 |
| F95K/F98P | 2.57 | 3/3 |
| L27V/R28E/S55T | 3.36 | 1/3 |
| S55G/S93Y/Q96W | 1.95 | 3/3 |
| S89C/R90V/F98Y | 3.34 | 3/3 |
| E23K/Y31G/D91V | 1.65 | 3/3 |
| L27N/N52W/V97C | not detected | 0/3 |
| K50W/R53Y/S92E | 3.64 | 1/3 |
| G24E/Y31N/N33W | 5.02 | 2/3 |
| S26D/R28C/Q96L | 3.25 | 1/3 |
| S55D/S89Y/Q96E | not detected | 0/3 |
| S88Y/D91A/G94H | 2.85 | 3/3 |
| D25G/P54M/S92C | not detected | 0/3 |
| Y31K/A32H/F95W | 5.11 | 1/3 |
| G24T/F95H/F98K | 3.43 | 3/3 |
| R90W/S93V/F95V | 3.43 | 1/3 |
| S26W/Y29K/P54S | 5.43 | 1/3 |
| D25C/G49A/N51F | 4.03 | 2/3 |
| A32I/P54W/S89D | 3.39 | 1/3 |
| S55R/F98Y | 2.42 | 3/3 |
| F95T/Q96E/V97P | not detected | 0/3 |
| N33F/S88P/V97E | 4.55 | 1/3 |
| R53T/D91G/Q96M | 5.50 | 1/3 |
| D91W/F95A/F98W | 2.70 | 3/3 |
| Y30I/N51W/R53N | 3.99 | 1/3 |
| K50H/S88A | 2.53 | 3/3 |
| N52C/S55M/S89M | 2.45 | 1/3 |
| N51Y/N52P/F98K | 3.91 | 1/3 |
| L27T/R28A/F98E | 4.44 | 2/3 |
| G24N/S26F/Y30D | 3.51 | 3/3 |
| N33W/N52S | 3.61 | 2/3 |
| D25W/S55A/Q96P | 3.32 | 2/3 |
| L27E/S88D/F98T | 3.97 | 2/3 |
| D25A/N51R/D91S | 4.00 | 3/3 |
| G24Q/S92N/F95G | 4.79 | 1/3 |
| N33H/R90P | not detected | 0/3 |
| Y29M/N52C/S55M | 4.19 | 1/3 |
| E23Q/F95T | 1.96 | 2/3 |
| Y31E/A32H/S92C | not detected | 0/3 |
| L27E/N52H/F95K | 3.44 | 3/3 |
| K50S/Q96V/V97Y | 3.40 | 3/3 |
| K50T/Q96W | 4.97 | 1/3 |
| L27F/S89K/V97M | 4.13 | 2/3 |
| A32C/G49K/G94W | not detected | 0/3 |
| S26K/L27E/D91I | 3.89 | 2/3 |
| G49R/N51W/V97L | not detected | 0/3 |
| S26P/S55E/S93Q | 2.26 | 3/3 |
| G24K/N52P/D91F | not detected | 0/3 |

Excerpt, the first 11 entries:

changes,mean log10 Kd (nM),detected
R28I/G49M/N51Q,4.21,2/3
R28Y/Y31H/R53P,3.75,2/3
Y29G/D91Q/Q96W,1.58,3/3
Y30N/D91M/S93V,5.29,1/3
Y29N/N51I/P54D,3.89,3/3
K50T/S55P/R90C,4.57,1/3
L27K/N33V/P54K,4.10,1/3
Y30D/F95Y/V97D,not detected,0/3
Y30A/P54N/S92W,1.52,3/3
R28Q/Y30T/N52W,1.61,3/3
A32L/S89N/Q96D,not detected,0/3